# Reference: patent US7517517B2 (Janssen Pharmaceutica N.V., priority 2002, dated 2009)
# Sequences of proteins named here, by UniProt entry; tags and fusion partners are left off. Residues count along the entry.
# UniProt P23385, 19-1199 limits assumed: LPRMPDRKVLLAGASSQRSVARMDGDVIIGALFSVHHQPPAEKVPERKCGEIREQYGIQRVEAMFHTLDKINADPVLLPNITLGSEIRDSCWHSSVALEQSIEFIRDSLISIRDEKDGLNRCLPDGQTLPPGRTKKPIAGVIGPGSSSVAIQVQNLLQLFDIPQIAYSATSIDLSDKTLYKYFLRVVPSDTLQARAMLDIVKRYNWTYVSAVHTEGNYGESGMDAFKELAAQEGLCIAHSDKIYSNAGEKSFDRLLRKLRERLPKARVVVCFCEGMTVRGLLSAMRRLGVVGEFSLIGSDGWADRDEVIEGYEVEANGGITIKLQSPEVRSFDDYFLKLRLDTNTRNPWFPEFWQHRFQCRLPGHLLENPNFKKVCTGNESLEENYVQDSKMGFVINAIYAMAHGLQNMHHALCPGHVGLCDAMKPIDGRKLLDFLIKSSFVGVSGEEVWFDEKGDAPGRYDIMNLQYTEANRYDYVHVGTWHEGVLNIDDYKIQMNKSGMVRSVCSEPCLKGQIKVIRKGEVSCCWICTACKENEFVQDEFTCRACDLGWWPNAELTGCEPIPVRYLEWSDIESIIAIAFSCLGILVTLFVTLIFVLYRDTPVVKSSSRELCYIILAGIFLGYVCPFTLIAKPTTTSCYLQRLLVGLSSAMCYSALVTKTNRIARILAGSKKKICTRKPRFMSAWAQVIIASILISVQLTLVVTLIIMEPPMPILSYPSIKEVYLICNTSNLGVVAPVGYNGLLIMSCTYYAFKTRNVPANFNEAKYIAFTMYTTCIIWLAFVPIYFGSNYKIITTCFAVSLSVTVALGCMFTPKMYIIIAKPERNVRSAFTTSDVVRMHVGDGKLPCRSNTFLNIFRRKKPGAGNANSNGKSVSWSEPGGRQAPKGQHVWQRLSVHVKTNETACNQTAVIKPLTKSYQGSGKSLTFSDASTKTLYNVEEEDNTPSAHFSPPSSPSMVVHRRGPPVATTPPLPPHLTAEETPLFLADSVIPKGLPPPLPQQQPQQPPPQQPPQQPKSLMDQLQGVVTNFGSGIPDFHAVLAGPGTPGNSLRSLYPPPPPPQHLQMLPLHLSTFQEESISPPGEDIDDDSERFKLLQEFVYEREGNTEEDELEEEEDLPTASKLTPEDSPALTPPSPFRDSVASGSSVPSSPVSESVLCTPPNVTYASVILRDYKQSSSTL
# Molecular target: T1, rat mGlu1a receptor (Rattus norvegicus, UniProt P23385)
# Assay: [3H]quisqualate binding to rat mGlu1a receptor CHO-dhfr− membranes (saturation, inhibition)
# Settings: inhibition of [3H]quisqualate binding, mean ± SD of 2 experiments
Hill coefficient,Ki [µM],SMILES
0.96 ± 0.02,165,C[C@@](N)(C(=O)O)c1ccc(C(=O)O)cc1

# Same assay, conditions: tested as the radiolabelled form
row,SMILES,number of binding sites labelled as % of the number labelled by [3H]Compound A [%]
1,"N[C@@H](Cn1oc(=O)[nH]c1=O)C(=O)O [quisqualate, reference compound]",60

# Molecular target: T1, rat mGlu1a receptor
# Assay: [3H]Compound A binding to rat mGlu1a receptor CHO-dhfr− membranes (saturation, kinetics, inhibition)
# Settings: rat mGlu1a receptor CHO-dhfr− membranes
row,inhibition of [3H]Compound A binding (in words),SMILES
1,did not inhibit,C[C@@](N)(C(=O)O)c1ccc(C(=O)O)cc1

# Same assay, conditions: read-out: Ki (nM), inhibition of [3H]Compound A-binding; 2.5 nM [3H]Compound A, 30 min at 4° C.; mean ± SD of 3–4 experiments
row,Ki [nM],SMILES
1,> 1e+06,C[C@@](N)(C(=O)O)c1ccc(C(=O)O)cc1

# Molecular target: cloned rat mGlu1 receptor (Rattus norvegicus, UniProt P23385)
# Assay: Signal transduction at the cloned rat mGlu1 receptor in CHO cells (glutamate-induced Ca2+ rise, FLIPR)
# Assay type: cell-based
# Settings: inhibition of glutamate-induced intracellular Ca2+ rise, CHO cells expressing mGlu1 receptor; compounds with pIC50 between 7 and 8
row,pIC50,SMILES
1,7.63,CCc1cc2cc(C(=O)Cc3ccsc3)ccc2nc1C
2,7.28,COC1CCC(C(=O)c2ccc3[nH]c(=O)c(C)cc3c2)CC1 (stereo not drawn)
3,7.57,O=C(Cc1ccsc1)c1ccc2nc3c(cc2c1)CCCS3
4,7.18,CCc1cc2cc(C(=O)[C@H]3CC[C@H](C)CC3)ccc2[nH]c1=O
5,7.73,"COC1CCC(C)(CC(=O)c2ccc3nc4c(cc3c2)CCCO4)CC1 (single isomer, unassigned) [486]"
6,7.05,CCc1cc2cc(C(=O)[C@H]3CC[C@@H](OC)CC3)ccc2nc1COC(C)=O (relative stereo)
7,7.86,"COC1CCC(F)(CC(=O)c2ccc3nc4c(cc3c2)CCCS4)CC1 (single isomer, unassigned) [479]"
8,7.63,"COC1CCC(C)(CC(=O)c2ccc3nc4c(cc3c2)CCCO4)CC1 (single isomer, unassigned) [487]"
9,7.84,"COC1CCC(C)(CC(=O)c2ccc3nc4c(cc3c2)CCCS4)CC1 (single isomer, unassigned)"
10,7.00,CCc1cc2cc(C(=O)CC3CC4CCC3C4)ccc2[nH]c1=O (stereo not drawn)

# Further lines, the molecule ahead of its results:
row,SMILES,pIC50
1,CCCc1cc2cc(C(=O)C3CCC(OC)CC3)ccc2[nH]c1=O (stereo not drawn),7.49
2,CCc1c(CC)c2cc(C(=O)C3CCC(OC)CC3)ccc2[nH]c1=O (stereo not drawn),7.81
3,"CC1(CC(=O)c2ccc3nc4c(cc3c2)CCS4)CC2CCC1C2 (single isomer, unassigned)",7.16
4,CCc1cc2cc(C(=O)[C@@H]3CCC[C@@H](OC)C3)ccc2[nH]c1=O,7.13
5,"COC1CCC(F)(CC(=O)c2ccc3nc4c(cc3c2)CCCS4)CC1 (single isomer, unassigned) [480]",7.71
6,CCc1cc2cc(C(=O)C3(F)CCC(OC)CC3)ccc2[nH]c1=O (stereo not drawn),7.90
